What was measured:
Mu-type opioid receptor = Mu-type opioid receptor (Homo sapiens, UniProt P35372); test: DRUGMATRIX: Opiate mu (OP3, MOP) radioligand binding (ligand: [3H] Diprenorphine); conditions: cho-k1
[1] = molecular target: Kappa-type opioid receptor (Homo sapiens, UniProt P41145); test: DRUGMATRIX: Opiate kappa (OP2, KOP) radioligand binding (ligand: [3H] Diprenorphine); conditions: hek293

By UniProt entry, the sequences of proteins in these tests, tags left out. Where a name states a change or a piece, a line headed by the entry shows the natural chain unless it says otherwise.
UniProt P35372, whole entry, looked up: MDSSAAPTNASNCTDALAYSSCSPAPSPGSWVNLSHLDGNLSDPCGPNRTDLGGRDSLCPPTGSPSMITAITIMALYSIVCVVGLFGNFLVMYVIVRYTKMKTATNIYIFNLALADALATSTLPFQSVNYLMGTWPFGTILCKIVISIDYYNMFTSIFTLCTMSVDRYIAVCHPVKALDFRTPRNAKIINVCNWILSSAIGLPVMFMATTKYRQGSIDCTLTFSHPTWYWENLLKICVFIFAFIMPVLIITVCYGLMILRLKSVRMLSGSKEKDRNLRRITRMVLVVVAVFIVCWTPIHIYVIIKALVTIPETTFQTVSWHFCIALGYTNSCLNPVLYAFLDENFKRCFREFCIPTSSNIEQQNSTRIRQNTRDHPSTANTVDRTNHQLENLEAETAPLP
UniProt P41145: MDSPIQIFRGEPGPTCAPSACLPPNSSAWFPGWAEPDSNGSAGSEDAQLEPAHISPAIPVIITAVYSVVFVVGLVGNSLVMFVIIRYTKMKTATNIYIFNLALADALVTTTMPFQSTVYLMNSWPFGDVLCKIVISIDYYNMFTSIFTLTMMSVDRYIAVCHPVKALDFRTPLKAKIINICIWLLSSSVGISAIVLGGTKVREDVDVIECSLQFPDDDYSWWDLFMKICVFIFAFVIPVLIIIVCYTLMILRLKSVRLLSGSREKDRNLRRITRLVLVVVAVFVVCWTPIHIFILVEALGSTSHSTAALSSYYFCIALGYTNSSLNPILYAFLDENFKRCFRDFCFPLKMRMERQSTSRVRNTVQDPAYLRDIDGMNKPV

COc1ccc(C(CN(C)C)C2(O)CCCCC2)cc1 (configuration not stated)
Not Active: IC50 (Mu-type opioid receptor) | Ki (Mu-type opioid receptor) | IC50 [1] | Ki [1]

C=CCO [ALLYL ALCOHOL]
Not Active: IC50 (Mu-type opioid receptor) | Ki (Mu-type opioid receptor) | IC50 [1] | Ki [1]

N#C[C@H](O[C@@H]1O[C@H](CO[C@@H]2O[C@H](CO)[C@@H](O)[C@H](O)[C@H]2O)[C@@H](O)[C@H](O)[C@H]1O)c1ccccc1
Not Active: IC50 (Mu-type opioid receptor) | Ki (Mu-type opioid receptor) | IC50 [1] | Ki [1]

CC(C)(C)NCC(O)c1cc(Cl)c(N)c(Cl)c1 (configuration not stated)
Not Active: IC50 (Mu-type opioid receptor) | Ki (Mu-type opioid receptor) | IC50 [1] | Ki [1]

CC(C)c1cccc(C(C)C)c1O
Not Active: IC50 [1] | Ki [1]

CCN(CC)N=O [N-NITROSODIETHYLAMINE]
Not Active: IC50 (Mu-type opioid receptor) | Ki (Mu-type opioid receptor) | IC50 [1] | Ki [1]

C[C@@H]1C[C@@H]([C@H](O)CC2CC(=O)NC(=O)C2)C(=O)[C@@H](C)C1
Not Active: IC50 (Mu-type opioid receptor) | Ki (Mu-type opioid receptor) | IC50 [1] | Ki [1]

C=C(Cl)Cl [1,1-DICHLOROETHENE]
Not Active: IC50 (Mu-type opioid receptor) | Ki (Mu-type opioid receptor) | IC50 [1] | Ki [1]

CCN1C[C@]2(COC)[C@H](O)C[C@H](OC)[C@@]34[C@@H]5C[C@@]6(O)[C@H](OC(=O)c7ccccc7)[C@@H]5[C@@](OC(C)=O)([C@@H]([C@H](OC)[C@H]23)[C@@H]14)[C@@H](O)[C@@H]6OC [ACONITINE]
Not Active: IC50 (Mu-type opioid receptor) | Ki (Mu-type opioid receptor) | IC50 [1] | Ki [1]

Oc1ccc(/C=C/c2cc(O)cc(O)c2)cc1 [RESVERATROL]
Not Active: IC50 (Mu-type opioid receptor) | Ki (Mu-type opioid receptor) | IC50 [1] | Ki [1]

O=[N+]([O-])c1cc([As](=O)(O)O)ccc1O
Not Active: IC50 (Mu-type opioid receptor) | Ki (Mu-type opioid receptor) | IC50 [1] | Ki [1]

— ChEMBL document CHEMBL1909046, “DrugMatrix in vitro pharmacology data”
